Apparent affinities of Ab-14 variants for a coronavirus HR2 peptide

Antigen: PDVDLGDISGINAS, a 14-residue peptide of the SARS-CoV-2 spike HR2 region.

Parent scFv Ab-14: VH joined to VL by the linker GGGGSGGGGSGGGGS. Changes lie in the light chain CDRs alone.
VH: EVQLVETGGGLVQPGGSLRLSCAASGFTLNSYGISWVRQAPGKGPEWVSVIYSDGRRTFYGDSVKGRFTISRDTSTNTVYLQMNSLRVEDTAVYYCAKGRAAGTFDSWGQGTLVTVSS
VL: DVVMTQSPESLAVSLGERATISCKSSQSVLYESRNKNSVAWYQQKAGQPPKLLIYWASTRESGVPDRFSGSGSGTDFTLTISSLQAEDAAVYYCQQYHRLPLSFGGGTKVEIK

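The parent was found by panning a naive human phage display library on the peptide. The variants were designed computationally from a first round of random CDR variants and then made and measured. Several design methods are mixed in this list. In AlphaSeq, yeast of one mating type display the scFv and yeast of the other type display the target. The frequency of each diploid, read from paired DNA barcodes, reflects how well the two displayed proteins bind. Each replicate has its own calibration line, from reference interactions of the BCL2 family. Mating was done six times.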

The parent's light chain CDRs are KSSQSVLYESRNKNSVA, WASTRES, QQYHRLPLS; each variant's own CDRs replace them letter for letter. The Kd shown is the geometric mean over detected replicates; a lower Kd is a better binder. A pair that was not seen in any replicate is written "nd"; this usually means weak binding, but a binder can also be missed. Entries are sorted by rising average, undetected variants last. Of ten entries with the parent sequence, four were seen in most replicates (averages 2.2 nM to 240 nM), three in one and three in none, so single entries are noisy. The range of this assay differs from that of the first round, and the authors advise against merging the two. The authors' rule: three or more of the six replicates give a measured affinity, fewer mean a poor binder. A sequence that the file lists under several names has all its replicates pooled. Three control strains display no target. For all light chain designs, 4% of the pairings with them gave a signal, with a median of 430 nM and one signal in twenty below 38 nM, so weak values seen in few replicates may be background.

Variant KSSQAWWYESRNKWSVA | NASLREQ | QQYHRLPLS gave 280 pM (6 of 6 replicates).
Variant KLDQSWLYESRNKNSVA | GASTRES | QQYHRLPLS gave 440 pM (6 of 6 replicates).
Variant KFSQSVGYESRNKNSVA | EASTRES | QQYHRLPLS gave 470 pM (6 of 6 replicates).
Variant KLEQSVLYESRNKNSVA | NASQREQ | QQYHRLPLS gave 480 pM (6 of 6 replicates).
Variant KISNMVDYMSATHSSVA | QTSTREE | QQYHRLPLS gave 550 pM (6 of 6 replicates).
Variant KLQQSFLYESRNKNSVA | NASTRES | QQYHRLPLS gave 570 pM (6 of 6 replicates).
Variant KLSMSVLYESRNKNAVA | EASTRES | QQYHRLPLS gave 680 pM (6 of 6 replicates).
Variant KLSQSMLYESRNKNSVA | NASQRMS | QQYHRLPLS gave 690 pM (6 of 6 replicates).
Variant KCSQSVLFQSRNKNSVA | DASTRES | QQYHRLPLS gave 820 pM (6 of 6 replicates).
Variant KCSQSWLYESRNKNSVA | GASTRES | QQYHRLPLS gave 1.1 nM (6 of 6 replicates).
Variant KSSQVYYYESRNKNSVA | GASTRES | QQYHRLPLS gave 1.1 nM (6 of 6 replicates).
Variant TLTQSVAMESHNKNSVA | DLSTRGS | QQYHRLPLS gave 1.1 nM (6 of 6 replicates).
Variant KLSQSVLYESRNKNSVA | SASARES | QQYHRLPLS gave 1.1 nM (6 of 6 replicates).
Variant KSSQSMLYESRNKNSVA | DASQRES | QQYHRLPLS gave 1.2 nM (6 of 6 replicates).
Variant KAPQSDLYESRNKNSVA | SASTRSQ | QQYHRLPLQ gave 1.3 nM (6 of 6 replicates).
Variant KLSQSELYESRNKNSVA | NASTRES | QSYHRLPLS gave 1.5 nM (6 of 6 replicates).
Variant KFSQSHLYESRNKNSVA | NASTRES | QQYHRLPLS gave 1.5 nM (6 of 6 replicates).
Variant KVKAMLNMWARDIHNVA | HADERAV | QQYSRLPLG gave 2.0 nM (6 of 6 replicates).
Variant HVELGVGGVQKYGSSVA | HASQRQE | QQYYQLPLT gave 2.2 nM (6 of 6 replicates).
Variant HTQHLGFGDPAHANSIA | EVSQVCS | QQYMRLPLI gave 2.3 nM (6 of 6 replicates).
Variant KISQAVNYLSRVMNNVA | DNSTRGS | QQYFRLPLS gave 2.3 nM (6 of 6 replicates).
Variant KLEQSWLYESRNKNSVA | NASQRMS | QQYHRLPLS gave 2.6 nM (6 of 6 replicates).
Variant KSSQSVLYESENKNSVA | EASTRES | QQYHRLPLS gave 3.1 nM (12 of 12 replicates).
Variant KFQQMVMQGDRNKNSVA | QASTRLQ | QQYHRLPLS gave 3.2 nM (6 of 6 replicates).
Variant KSSQSVKPESRNKNSVA | DASTRES | QQYHRLPLS gave 3.3 nM (6 of 6 replicates).
Variant MMTQLTYMGSRARNAVA | QAETRVN | QQYHHLPLF gave 6.2 nM (6 of 6 replicates).
Variant KLAMYLEMNARTNHHIA | EANLKPS | QQYNRLPFS gave 7.4 nM (6 of 6 replicates).
Variant KSSQSVLPMSSNKNSVA | AASTRES | QFYHRLPLS gave 7.6 nM (6 of 6 replicates).
Variant KSSQSVLDEGRNKNSVA | WASTRES | QQYHRLPLS gave 8.0 nM (6 of 6 replicates).
Variant KLSQSWLYESRWKNSVA | GASQRES | QQYHRLPLS gave 13 nM (6 of 6 replicates).
Variant MIASGLRGVGRNKNSVA | NAQTRES | QHYHRLPLS gave 14 nM (6 of 6 replicates).
Variant HMSMLTLQGMYHRNSVA | QMTTREN | QQYDHLPLA gave 14 nM (6 of 6 replicates).
Variant KISQMVRVGSTHKNSIA | EEATRAK | QQYHRLPLA gave 17 nM (6 of 6 replicates).
Variant KLSMTHEMEHVNRNSVA | ELVTRMS | QQYNRLPLS gave 18 nM (6 of 6 replicates).
Variant TIDDEMPSHGFKWNSIA | GVATVLQ | QQYDRLPLS gave 21 nM (6 of 6 replicates).
Variant MISMLMNMGQFAINSVA | QASIRNS | QQYDRLPLM gave 39 nM (4 of 6 replicates).
Variant KVSEFMRGLMMRKDNIA | DNNTRSN | QQYDRLPLS gave 40 nM (4 of 6 replicates).
Variant KSSMLVEYEDRNCNSVA | WGSEREF | QQYHRMPLS gave 68 nM (1 of 6 replicates).
Variant KSYQSVLAESRNKNSVA | WASTRES | QQYDRLPLS gave 300 nM (5 of 6 replicates).
Variant KSSSSVLYESRNKNSVA | WASTRES | QLYHRLPLS gave 490 nM (1 of 6 replicates).
Variant HLSDLVKMESRNTNSVA | DNSTRGS | QQYDRLPLS gave 640 nM (3 of 6 replicates).
Variant KSSQSVLWEWRNKNSVA | WASTRWS | QQYAILPLK gave nd (0 of 6 replicates).
Variant KSSQGVLYFSRNKNSVA | WASTRES | QQYHRLPLS gave nd (0 of 6 replicates).
Variant KSSQSVLYESRNKNSVA | WASTRES | QQYHRTPLS gave nd (0 of 6 replicates).

Top 7 of the variants detected in all replicates, tightest first:

With KSSQAWWYESRNKWSVA | NASLREQ | QQYHRLPLS the result was 280 pM (6 of 6 replicates).
With KLDQSWLYESRNKNSVA | GASTRES | QQYHRLPLS the result was 440 pM (6 of 6 replicates).
With KFSQSVGYESRNKNSVA | EASTRES | QQYHRLPLS the result was 470 pM (6 of 6 replicates).
With KLEQSVLYESRNKNSVA | NASQREQ | QQYHRLPLS the result was 480 pM (6 of 6 replicates).
With KISNMVDYMSATHSSVA | QTSTREE | QQYHRLPLS the result was 550 pM (6 of 6 replicates).
With KLQQSFLYESRNKNSVA | NASTRES | QQYHRLPLS the result was 570 pM (6 of 6 replicates).
With KLSMSVLYESRNKNAVA | EASTRES | QQYHRLPLS the result was 680 pM (6 of 6 replicates).

The measurements come from Li et al. 2023 (doi:10.1038/s41467-023-39022-2) through the FLAb antibody collection.